Experimental findings from PubChem BioAssay AID540317 (National Center for Advancing Translational Sciences (NCATS), 2011) are described below.

Amino acid sequences for entries named in this document (tags omitted).
UniProt P83916, whole entry, looked up: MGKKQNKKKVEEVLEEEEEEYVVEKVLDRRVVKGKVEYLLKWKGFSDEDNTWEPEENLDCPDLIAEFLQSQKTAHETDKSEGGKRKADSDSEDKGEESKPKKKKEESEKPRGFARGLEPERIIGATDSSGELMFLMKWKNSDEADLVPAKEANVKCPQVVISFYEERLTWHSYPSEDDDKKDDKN

Molecules are shown by their SMILES. The list shows a part of the results, in another mix than the full data. Records with an inconclusive call do not appear. Where a call stands in place of a potency, no number is given. Active and inactive are the calls of the source. Calls follow the shape of the dose curve; as a rule, active = well fitted inhibition curve with a large enough effect; inconclusive = small, poorly fitted or top-dose-only effect; inactive = no such curve, though single readings can be large or run the other way.
Potency is read from the fitted curve at half-maximal effect.

For the experiment, the target named is Chromobox protein homolog 1 (Homo sapiens) (UniProt P83916). As to the kind of experiment: HTS for Inhibitors of HP1-beta Chromodomain Interactions with Methylated Histone Tails. Also: nearly all actives have a fitted effect of over 70% in size. The following applies: AlphaScreen HP1-beta / biotin-H3K9me3 peptide binding; series mostly up to 114 µM. In general terms: Alpha assays give light when donor and acceptor beads are brought close together.
For the molecule `O=[N+]([O-])c1ccc(Nc2ccc(Oc3ccc([N+](=O)[O-])cc3[N+](=O)[O-])cc2)c([N+](=O)[O-])c1`, the Potency entry is “inactive”.

As for `CCOC(=O)Nc1cccc([As](=O)(O)O)c1`, the Potency entry was “inactive”.

In the case of `O=P(/N=c1/nc(-c2ccccc2)n(-c2ccccc2)s1)(Nc1ccccc1)Nc1ccccc1`, the Potency result is “inactive”.

Consider `O=C(Nc1cc([As](=O)(O)O)ccc1O)c1ccccc1`, for which the Potency entry is “inactive”.

`O=P1(N(CCCl)CCCl)OCCCS1` (stereo not drawn): the Potency entry is “inactive”.

On to `O=C(O)CNc1ccc([As](=O)(O)O)cc1`, for which the Potency result is “inactive”.

`COC(=O)C1(C)COP(=O)(Nc2ccccc2)OC1` (stereo not drawn): the Potency result was “inactive”.

Take `O=[N+]([O-])c1cccc(NC2=NCC(CBr)S2)c1` (stereo not drawn): the Potency entry was “inactive”.

As for `O=[N+]([O-])c1ncn(CCn2ncnc2[N+](=O)[O-])n1`, the Potency entry was “inactive”.

`Cc1ccc(NP(=O)(Oc2ccccc2)Oc2ccccc2)nc1`: the Potency entry was “inactive”.

With `CCc1nc2c(n1)c1c(non1O)c1c2no[n+]1[O-]`, the Potency result is “inactive”.

For `O=[N+]([O-])c1cccc2n[nH]nc12`, the Potency entry is “inactive”.

For `CC(=O)N1C2C3N(C(C)=O)C1C1N(C(C)=O)C(C(N1C(C)=O)N3C(C)=O)N2C(C)=O`, the Potency entry was “inactive”.

Consider `COc1ccc(C2=NCC(CBr)S2)cc1` (stereo not drawn), for which the Potency result was “inactive”.

Turning to `CC1CCN(C(=O)Oc2c(Cl)cc(Cl)c3cccnc23)CC1`, the Potency entry is “inactive”.

Turning to `CC(C)=N/N=C(\N)N[N+](=O)[O-]`, the Potency result was “inactive”.

Take `CN(C)C(=O)OCCc1n(C)cc[n+]1C`: the Potency entry is “inactive”.

`CCN(/C(=N/P(=O)(N1CCOCC1)N1CCOCC1)N1CCOCC1)c1ccc(OC)cc1`: the Potency result is “inactive”.

Take `Nc1ccc([As](=O)(O)c2ccc(N)cc2)cc1`: the Potency result was “inactive”.

Take `CN1CCCC(OC(=O)C(c2ccccc2)c2ccccc2)C1` (stereo not drawn): the Potency result was “inactive”.

In the case of `Clc1ccc(Cl)c(NC2=NCC(CBr)S2)c1` (stereo not drawn), the Potency entry is “inactive”.

As for `COc1ccccc1OP(=O)(Nc1ccc(C)cn1)Oc1ccccc1OC`, the Potency result was “inactive”.

Take `Cc1ccc(OP(=O)(Nc2nccs2)Oc2ccc(C)cc2)cc1`: the Potency entry was “inactive”.

For `CN(C(=O)Cc1ccc(Cl)c(Cl)c1)[C@H]1CCCC[C@H]1N1CCCC1`, the Potency result was “inactive”.

With `Cc1ccc(N/C(=N/P(=O)(N2CCOCC2)N2CCOCC2)N2CCOCC2)cc1`, the Potency entry is “inactive”.

With `NC(=O)c1cc([N+](=O)[O-])cc([N+](=O)[O-])c1N`, the Potency result was “inactive”.

In the case of `Oc1ccccc1CNc1ccccn1`, the Potency entry was “inactive”.

Consider `O=C(NC(Sc1ccncn1)C(Cl)(Cl)Cl)c1ccccc1` (stereo not drawn), for which the Potency is active: 25.1 µM.

On to `Nc1cc(N)c2nonc2c1[N+](=O)[O-]`, for which the Potency result is “inactive”.

Take `CC(C)CC(=O)NC(Sc1ccc(Cl)cc1)C(Cl)(Cl)Cl` (stereo not drawn): the Potency result is “inactive”.

Turning to `CCOP(=O)(Nc1ccccc1)OCC`, the Potency entry was “inactive”.

`Cc1ccc(NP(=O)(Oc2ccccc2F)Oc2ccccc2F)nc1`: the Potency result was “inactive”.

For the molecule `CN(C(=O)Cc1ccc(Cl)c(Cl)c1)[C@H]1CCCC[C@@H]1N1CCCC1`, the Potency result was “inactive”.

For `O=P(Nc1nc2ccc(Cl)cc2s1)(c1ccccc1)c1ccccc1`, the Potency result was “inactive”.

As to `CC(=O)Nc1ccc([As](=O)(O)O)cc1`, the Potency entry was “inactive”.

For `O=C(O)c1ccccc1[As](=O)(O)O`, the Potency entry is “inactive”.

In the case of `CCCC1OP(N)(=O)OCC1CC` (stereo not drawn), the Potency result was “inactive”.

For `Nc1cccc2ccc([As](=O)(O)O)cc12`, the Potency entry is “inactive”.

For `CCN(N=Nc1nonc1N)c1nonc1N`, the Potency entry was “inactive”.

Take `O=P1(N(CCCl)CCCl)OCCC2CCCCN21` (stereo not drawn): the Potency entry is “inactive”.

`c1ccc(-c2nn[nH]n2)c(-c2nn[nH]n2)c1`: the Potency result is “inactive”.

Take `Cc1ccc(NP(=O)(Oc2cccc(C)c2)Oc2cccc(C)c2)nc1`: the Potency entry was “inactive”.

For the molecule `CCNC(=S)/N=C(\N)N[N+](=O)[O-]`, the Potency result is “inactive”.

For `O=C(NC1CCS(=O)(=O)C1)NP(=S)(Oc1ccccc1)Oc1ccccc1` (stereo not drawn), the Potency entry is “inactive”.

With `CC(NC(=O)COC(=O)C(O)(c1ccccc1)c1ccccc1)c1ccccc1` (stereo not drawn), the Potency entry is “inactive”.

Regarding `Cc1ccccc1OP(=O)(Nc1ccccn1)Oc1ccccc1C`, the Potency result is “inactive”.

As for `CN(C)C(=O)Oc1noc2ccccc12`, the Potency result is “inactive”.

As to `O=C(OC1CN2CCC1CC2)c1ccccc1` (stereo not drawn), the Potency entry was “inactive”.

In the case of `CCC(=O)N1C2C3N(C(=O)CC)C1C1N(C(=O)CC)C(C(N1C(=O)CC)N3C(=O)CC)N2C(=O)CC`, the Potency entry is “inactive”.

With `COC(=O)c1cc2c(s1)N=C(c1ccccc1)N(C)P2(=O)N1CCOCC1` (stereo not drawn), the Potency entry is “inactive”.

Turning to `CC(=O)NC(SC(=S)N(CC(C)C)CC(C)C)C(Cl)(Cl)Cl` (stereo not drawn), the Potency result is “inactive”.

Regarding `Cc1ccc(OP(=O)(Nc2ccccn2)Oc2ccc(C)cc2)cc1`, the Potency entry is “inactive”.

In the case of `CC(C)(C)C(=O)NC(Sc1ccccc1)C(Cl)(Cl)Cl` (stereo not drawn), the Potency entry was “inactive”.

With `CCc1cc(O)c([N+](=O)[O-])c(C)c1[N+](=O)[O-]`, the Potency result was “inactive”.

Consider `O=P1(Nc2nc3ccc(Cl)cc3s2)COc2ccccc2O1` (stereo not drawn), for which the Potency result was “inactive”.

`CCOc1ccc(C2=NCC(CBr)S2)cc1` (stereo not drawn): the Potency result was “inactive”.

Consider `CC(=O)Nc1ccc([As](=O)(O)O)c(O)c1`, for which the Potency entry is “inactive”.

As to `CC(=O)Nc1ccc(Oc2c([N+](=O)[O-])cc([N+](=O)[O-])cc2[N+](=O)[O-])cc1`, the Potency entry was “inactive”.

On to `Cc1ccccc1CN(C)C(=O)COC(=O)C(O)(c1ccccc1)c1ccccc1`, for which the Potency result was “inactive”.

As for `C[C@H]1OP(=O)(Oc2ccccc2)C[C@@H]2O[C@@H]21` (stereo partly drawn), the Potency entry is “inactive”.

With `C[C@@H]1C=CCP(=O)(Oc2ccccc2)O1` (stereo partly drawn), the Potency result was “inactive”.

Turning to `CC(=O)c1ccc(N2CC2c2ccncc2)cc1` (stereo not drawn), the Potency entry is “inactive”.

For the molecule `N#C/C(=C\c1ccc(N(CCBr)CCBr)cc1)C(N)=O`, the Potency entry is “inactive”.

For the molecule `COC(=O)C1(C)COP(=O)(NCc2ccccc2)OC1` (stereo not drawn), the Potency entry was “inactive”.

For the molecule `c1nnnn1CCn1cnnn1`, the Potency result was “inactive”.

Take `CC(C)C(=O)NC(Sc1ccccc1)C(Cl)(Cl)Cl` (stereo not drawn): the Potency entry was “inactive”.

Consider `O=P(Nc1nccs1)(c1ccccc1)c1ccccc1`, for which the Potency entry was “inactive”.

In the case of `O=P(Nc1nc2ccccc2s1)(c1ccccc1)c1ccccc1`, the Potency entry is “inactive”.

`C[C@H]1OP(=O)(Oc2ccccc2)[C@H](O)[C@H](O)[C@H]1N=[N+]=[N-]` (stereo partly drawn): the Potency entry is “inactive”.

In the case of `O=P(Nc1ccccn1)(c1ccc(Br)cc1)c1ccc(Br)cc1`, the Potency result is “inactive”.

With `CN(C)C1(CNC(=O)c2ccc(Cl)c(S(N)(=O)=O)c2)CCCCC1`, the Potency result is “inactive”.

Turning to `COc1ccc(N)c([N+](=O)[O-])c1[N+](=O)[O-]`, the Potency entry was “inactive”.

Consider `O=C(OC1CN2CCC1CC2)c1cccc(Cl)c1` (stereo not drawn), for which the Potency result is “inactive”.

Turning to `C(Cc1nn[nH]n1)Cc1nn[nH]n1`, the Potency result is “inactive”.

As to `Nc1ccc([As](=O)(O)c2ccc([N+](=O)[O-])cc2)cc1`, the Potency entry is “inactive”.

As for `O=[As](O)(c1ccccc1)c1ccc(O)cc1`, the Potency entry is “inactive”.

As to `CC(=O)NC(SC(=S)N(C)C)C(Cl)(Cl)Cl` (stereo not drawn), the Potency result is “inactive”.

In the case of `O=[N+]([O-])c1ncn(CCn2cnc([N+](=O)[O-])n2)n1`, the Potency result was “inactive”.
